The values below come from PubChem BioAssay AID588856 (National Center for Advancing Translational Sciences (NCATS), 2011).

Each structure is given as a SMILES string. The entries are a selection whose mix differs from that of the whole data set. Active and inactive are the calls of the source. The call rests on the fitted dose curve; in most records, active means well fitted cell-killing curve with a large enough effect; inactive means no such curve, though single readings can be large or run the other way. Entries that show only a call come without a potency.

The nature of the assay: qHTS for Inhibitors of TGF-b: Cytotox Counterscreen. As to conditions: HepG2 CAGA-GFP viability, ATP luminescence, 18 h; series mostly up to 46.1 µM. The text has this:
TGF-b is a main component in the TGF-b signaling pathway which plays diverse roles in cellular and development pathways. TGF-b is mediated by transcription factors called "Smads". Although the Smad-dependent pathway is the primary canonical TGF-b signaling mode, TGF-b1 can also activate alternative signaling pathways, including those involving MAPK (ERK, JNK and p38). This interaction may mediate or enhance Smad-dependent responses, or can exert Smad-independent effects. The complexity of this signaling cascade allows the TGF-b superfamily to perform unique, overlapping or redundant functions. We believe that targeting the TGF-beta pathway at the Smad-transcription factor level may eliminate the consequences of disrupting the entire pathway and offer specificity without affecting other signaling pathways. Smad3 is the primary transducer of TGF-b's signals and Smad3 regulates many functions attributed to TGF-b signaling. We hypothesize that Smad3 inhibitors will selectively eliminate Smad3-specific TGF-beta signals without undesired off-target effects. We aim to identify Smad3-small molecule antagonists using a quantitative high throughput screening (qHTS) approach.
A high-throughput assay was developed to screen the NIH Molecular Libraries Small Molecule Repository (MLSMR). This is a cell based assay, where TGF-b is tagged with GFP. This is a counterscreen that evaluates the cytotoxicity of the compounds that were screened in the primary cell-based screen (AID 588855).
MH087449NIH Chemical Genomics Center [NCGC]
NIH Molecular Libraries Probe Centers Network [MLPCN]
Assay Submitter (PI): Sushil Rane, National Institute of […]
Suspensions of trypsinized HEPG2 CAGA-GFP cells were dispensed into white, tissue culture-treated, solid 1536-well plates at 5uL/well (1000 cells/well final concentration) in DMEM medium supplemented with 1% FBS. Plates were incubated at 37 degrees C for 2 hours, after which 23 nL of compounds or DMSO were delivered to each well using a pin tool. One uL of recombinant TGF-beta in DMEM (1% FBS) was then dispensed (500 pg/mL final concentration), and plates were incubated at 37 degrees C for 18 hours. Two uL of CellTiter Glo (Promega), a luminescence-based viability reagent, was dispensed, followed by a 10 minute room temperature incubation. The plates were then measured on a PerkinElmer ViewLux plate reader for luminescence (clear filter) using a 5 second exposure. The %Activity was determined from the corrected luminescence values. Wells containing media only (no cells) were used to normalize %Activity of identified toxic compounds; media-only wells corresponded to 100%Activity (complete cell-killing), while DMSO-dosed cell controls were used to normalize 0%Activity (no toxicity).
Concentration-response curves were fitted to the signals arising from the resulting luminescence. The concentration-effect curves were then classified based on curve quality (r2), response magnitude and degree of measured activity, and compounds were subsequently categorized based on their curve class.
As for `O=C(NC1CCS(=O)(=O)C1)NP(=S)(Oc1ccccc1)Oc1ccccc1` (stereo not given), the Potency entry was “inactive”.

For the molecule `CCNC(=S)/N=C(\N)N[N+](=O)[O-]`, the Potency result was “inactive”.

Consider `CN(C)C(=O)Oc1noc2ccccc12`, for which the Potency entry was “inactive”.

As to `O=c1c2cc([N+](=O)[O-])ccc2[nH]c2c([N+](=O)[O-])cc([N+](=O)[O-])cc12`, the Potency entry was “inactive”.

For the molecule `Cc1ccccc1OP(=O)(Nc1ccccn1)Oc1ccccc1C`, the Potency result is “inactive”.

On to `CC(NC(=O)COC(=O)C(O)(c1ccccc1)c1ccccc1)c1ccccc1` (stereo not given), for which the Potency entry was “inactive”.

As to `CCC(=O)N1C2C3N(C(=O)CC)C1C1N(C(=O)CC)C(C(N1C(=O)CC)N3C(=O)CC)N2C(=O)CC`, the Potency result was “inactive”.

In the case of `O=C(OC1CN2CCC1CC2)c1ccccc1` (stereo not given), the Potency entry is “inactive”.

Turning to `CC(=O)NC(SC(=S)N(CC(C)C)CC(C)C)C(Cl)(Cl)Cl` (stereo not given), the Potency result was “inactive”.

On to `Cc1ccc(OP(=O)(Nc2ccccn2)Oc2ccc(C)cc2)cc1`, for which the Potency result was “inactive”.

As to `COC(=O)c1cc2c(s1)N=C(c1ccccc1)N(C)P2(=O)N1CCOCC1` (stereo not given), the Potency result is “inactive”.

Turning to `O=C(C[N+]12CCC(CC1)C(OC(=O)c1ccccc1)C2)c1ccc([N+](=O)[O-])cc1` (stereo not given), the Potency result was “inactive”.

Turning to `CC(C)(C)C(=O)NC(Sc1ccccc1)C(Cl)(Cl)Cl` (stereo not given), the Potency entry was “inactive”.

Turning to `CCc1cc(O)c([N+](=O)[O-])c(C)c1[N+](=O)[O-]`, the Potency entry is “inactive”.

Regarding `CCOc1ccc(C2=NCC(CBr)S2)cc1` (stereo not given), the Potency result is “inactive”.

As to `O=P1(Nc2nc3ccc(Cl)cc3s2)COc2ccccc2O1` (stereo not given), the Potency result is “inactive”.

In the case of `CC1=CC2OC3CC4OC(=O)C=CC=CC(=O)OCCC(C)C(O)C(=O)OCC2(CC1)C4(C)C31CO1` (stereo not given), the Potency result is “inactive”.

On to `CC(=O)Nc1ccc(Oc2c([N+](=O)[O-])cc([N+](=O)[O-])cc2[N+](=O)[O-])cc1`, for which the Potency result is “inactive”.

Regarding `CC(=O)Nc1ccc([As](=O)(O)O)c(O)c1`, the Potency entry was “inactive”.

As to `C[C@@H]1C=CCP(=O)(Oc2ccccc2)O1` (stereo not given in full), the Potency entry is “inactive”.

Consider `C[C@H]1OP(=O)(Oc2ccccc2)C[C@@H]2O[C@@H]21` (stereo not given in full), for which the Potency entry was “inactive”.

For `Cc1ccccc1CN(C)C(=O)COC(=O)C(O)(c1ccccc1)c1ccccc1`, the Potency result is “inactive”.

For `COC(=O)C1(C)COP(=O)(NCc2ccccc2)OC1` (stereo not given), the Potency entry was “inactive”.

Consider `N#C/C(=C\c1ccc(N(CCBr)CCBr)cc1)C(N)=O`, for which the Potency result was “inactive”.

Regarding `CC(=O)c1ccc(N2CC2c2ccncc2)cc1` (stereo not given), the Potency entry is “inactive”.

Consider `Clc1ccc(Cl)c(NC2=NCC(CBr)S2)c1` (stereo not given), for which the Potency entry is “inactive”.

Take `CN1CCCC(OC(=O)C(c2ccccc2)c2ccccc2)C1` (stereo not given): the Potency entry is “inactive”.

As to `Cc1ccc(OP(=O)(Nc2nccs2)Oc2ccc(C)cc2)cc1`, the Potency result is “inactive”.

Consider `COc1ccccc1OP(=O)(Nc1ccc(C)cn1)Oc1ccccc1OC`, for which the Potency result was “inactive”.

As to `Cc1ccc(N/C(=N/P(=O)(N2CCOCC2)N2CCOCC2)N2CCOCC2)cc1`, the Potency entry was “inactive”.

As to `CN(C(=O)Cc1ccc(Cl)c(Cl)c1)[C@H]1CCCC[C@H]1N1CCCC1`, the Potency result was “inactive”.

On to `O=[N+]([O-])c1cc2c(cc1[N+](=O)[O-])OCO2`, for which the Potency entry is “inactive”.

On to `NC(=O)c1cc([N+](=O)[O-])cc([N+](=O)[O-])c1N`, for which the Potency result is “inactive”.

As for `O=[N+]([O-])C1C(O)C(O)C([N+](=O)[O-])C(O)C1O` (stereo not given), the Potency entry was “inactive”.

Regarding `COc1ccc(O)c2c(=O)c3c(OC)cc4c(c3oc12)C1C=COC1O4` (stereo not given), the Potency result was “inactive”.

Take `O=C(NC(Sc1ccncn1)C(Cl)(Cl)Cl)c1ccccc1` (stereo not given): the Potency result is “inactive”.

In the case of `Oc1ccccc1CNc1ccccn1`, the Potency entry was “inactive”.

For `CC(C)CC(=O)NC(Sc1ccc(Cl)cc1)C(Cl)(Cl)Cl` (stereo not given), the Potency entry was “inactive”.

On to `Nc1cc(N)c2nonc2c1[N+](=O)[O-]`, for which the Potency result is “inactive”.

With `C=C(C=O)C[C@@H]1C[C@H](O)C2OC3C[C@]4(C)OC5/C=C\CC6OC7C(CC=CCC6OC5CCCC4OC3CC2O1)OC1CC2OC3CC(=O)OC3C[C@@H](C)C[C@@]2(C)OC1C[C@@H]7C` (stereo not given in full), the Potency entry is “inactive”.

Take `CN(C(=O)Cc1ccc(Cl)c(Cl)c1)[C@H]1CCCC[C@@H]1N1CCCC1`: the Potency result was “inactive”.

In the case of `Cc1ccc(NP(=O)(Oc2ccccc2F)Oc2ccccc2F)nc1`, the Potency entry was “inactive”.

For the molecule `CCOP(=O)(Nc1ccccc1)OCC`, the Potency result was “inactive”.

With `Cc1cc(SC(NC(=O)c2ccc(F)cc2)C(Cl)(Cl)Cl)ncn1` (stereo not given), the Potency entry is “inactive”.

On to `CN(C)P(=O)(N(C)C)n1c(Nc2ccccc2)nnc1-c1ccccc1`, for which the Potency entry was “inactive”.

Consider `O=P(Nc1nc2ccc(Cl)cc2s1)(c1ccccc1)c1ccccc1`, for which the Potency entry is “inactive”.

Regarding `CCCC1OP(N)(=O)OCC1CC` (stereo not given), the Potency entry is “inactive”.

Take `O=C(O)c1ccccc1[As](=O)(O)O`: the Potency entry was “inactive”.

On to `CC(=O)Nc1ccc([As](=O)(O)O)cc1`, for which the Potency result is “inactive”.

`Nc1cccc2ccc([As](=O)(O)O)cc12`: the Potency result was “inactive”.

For the molecule `CCN(N=Nc1nonc1N)c1nonc1N`, the Potency result was “inactive”.

`Nc1c(O)cc([N+](=O)[O-])cc1[N+](=O)[O-]`: the Potency result is “inactive”.

For `O=C(Nc1cc([As](=O)(O)O)ccc1O)c1ccccc1`, the Potency result was “inactive”.

On to `O=P(/N=c1/nc(-c2ccccc2)n(-c2ccccc2)s1)(Nc1ccccc1)Nc1ccccc1`, for which the Potency result is “inactive”.

`O=P1(N(CCCl)CCCl)OCCCS1` (stereo not given): the Potency entry is “inactive”.

For the molecule `Cc1cc(C=O)ccc1N(CCCl)CCCl`, the Potency entry is “inactive”.

As to `O=C(O)CNc1ccc([As](=O)(O)O)cc1`, the Potency result was “inactive”.

On to `O=[N+]([O-])c1cccc(NC2=NCC(CBr)S2)c1` (stereo not given), for which the Potency entry was “inactive”.

Regarding `COC(=O)C1(C)COP(=O)(Nc2ccccc2)OC1` (stereo not given), the Potency entry is “inactive”.

As for `O=[N+]([O-])c1ncn(CCn2ncnc2[N+](=O)[O-])n1`, the Potency entry is “inactive”.

For `CC(C)(C)C(=O)NC(Sc1ccncn1)C(Cl)(Cl)Cl` (stereo not given), the Potency entry was “inactive”.

For the molecule `O=[N+]([O-])c1cc([N+](=O)[O-])c(CCNc2ccccc2)c([N+](=O)[O-])c1`, the Potency result is “inactive”.

Turning to `CCc1nc2c(n1)c1c(non1O)c1c2no[n+]1[O-]`, the Potency result is “inactive”.

`Cc1ccc(NP(=O)(Oc2ccccc2)Oc2ccccc2)nc1`: the Potency result was “inactive”.

For `CC(=O)N1C2C3N(C(C)=O)C1C1N(C(C)=O)C(C(N1C(C)=O)N3C(C)=O)N2C(C)=O`, the Potency result is “inactive”.

As for `O=[N+]([O-])c1cccc2n[nH]nc12`, the Potency entry was “inactive”.

On to `COc1ccc(C2=NCC(CBr)S2)cc1` (stereo not given), for which the Potency entry was “inactive”.

For `c1cc(-c2nn[nH]n2)ccc1-c1nn[nH]n1`, the Potency result was “inactive”.

Regarding `CC1CCN(C(=O)Oc2c(Cl)cc(Cl)c3cccnc23)CC1`, the Potency entry is “inactive”.

As for `CN(C)C(=O)OCCc1n(C)cc[n+]1C`, the Potency result is “inactive”.

`CC(C)=N/N=C(\N)N[N+](=O)[O-]`: the Potency entry is “inactive”.

Turning to `COc1cc([N+](=O)[O-])c([N+](=O)[O-])cc1OC`, the Potency entry was “inactive”.

As for `CC(C)c1nc(Nc2ccccc2)n(P(=O)(N(C)C)N(C)C)n1`, the Potency entry was “inactive”.

Turning to `CCN(/C(=N/P(=O)(N1CCOCC1)N1CCOCC1)N1CCOCC1)c1ccc(OC)cc1`, the Potency result was “inactive”.

Consider `Nc1ccc([As](=O)(O)c2ccc(N)cc2)cc1`, for which the Potency entry was “inactive”.
